Among the data in PubChem BioAssay (NCI) are growth inhibition values, retold here.

The entries are a selection whose mix differs from that of the whole data set. Some compounds were tested as several samples or in several runs, with calls that do not always agree. Activity calls are given as the source filed them. Rule as the data show it: active = growth inhibition above about 70%; inactive = the rest.

The nature of this assay: NCI Yeast Anticancer Drug Screen. Data for the wt2 strain (AID 169).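 Also: 0% = growth of vehicle-treated yeast cultures.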 Particulars: S. cerevisiae wt2 strain growth inhibition, active compounds read high. Here is the method:
Growth inhibition of yeast strains with defined genetic alterations is measured as a screen for potential anti-cancer activity. Selected strains with alterations in DNA damage repair or cell cycle control were exposed to compounds and growth inhibition was measured relative to vehicle treated controls. The strain used in this assay is wt2

Turning to `COc1ccc([N+](=O)[O-])c(C[N+](C)(CCCl)CCCl)c1`, the growth inhibition is inactive: 13% (at 1.2 µM); inactive: 13% (at 3.7 µM); inactive: 3% (at 11.0 µM); inactive: 17% (at 33.0 µM); inactive: 26% (at 100.0 µM).

As to `COc1ccc(C[N+](C)(CCCl)CCCl)c([N+](=O)[O-])c1`, the growth inhibition is inactive: 0% (at 1.2 µM); inactive: 1% (at 3.7 µM); inactive: 4% (at 11.0 µM); inactive: 7% (at 33.0 µM); inactive: 6% (at 100.0 µM).

Take `Cn1cnc([N+](=O)[O-])c1C[N+](C)(CCCl)CCCl`: the growth inhibition by setting is: (at 1.2 µM) inactive: 17%; (at 3.7 µM) inactive: 17%; (at 11.0 µM) inactive: 18%; (at 33.0 µM) inactive: 34%; (at 100.0 µM) active: 72%.

`Cc1cccc(C[N+](C)(CCCl)CCCl)c1[N+](=O)[O-]`: the growth inhibition is, setting by setting: (at 1.2 µM) inactive: -2%; (at 3.7 µM) inactive: -2%; (at 11.0 µM) inactive: 7%; (at 33.0 µM) inactive: 35%; (at 100.0 µM) active: 83%.

For the compound `ClCCN1CCCCC1CCl` (stereo not given), the growth inhibition (at 1.2 µM) is inactive: -1%; the growth inhibition (at 3.7 µM) was inactive: 6%; the growth inhibition (at 11.0 µM) is inactive: 1%; the growth inhibition (at 33.0 µM) is inactive: 8%; the growth inhibition (at 100.0 µM) is inactive: 36%.

With `Cc1ccc([N+](=O)[O-])c(C[N+](C)(CCCl)CCCl)c1`, the growth inhibition is inactive: -4% (at 1.2 µM); inactive: -6% (at 3.7 µM); inactive: 5% (at 11.0 µM); inactive: 35% (at 33.0 µM); active: 85% (at 100.0 µM).
